The results in this text go back to patent US20140303084.

The test system of the data set is conjugate A.

Turning to thrombin, the “cleavage of conjugate A (10 µM) by 1.4 nM thrombin, HPLC” value is given as “the conjugate was fully cleaved after about 60 min of incubation”.
